The results in this text go back to patent publication US20090270390A1, “PYRIMIDINE DERIVATIVES” (AstraZeneca, priority 2006, published 2009).

Protein sequences, listed by entry. Tags and fused reporters are not part of them.
UniProt P42336, whole entry: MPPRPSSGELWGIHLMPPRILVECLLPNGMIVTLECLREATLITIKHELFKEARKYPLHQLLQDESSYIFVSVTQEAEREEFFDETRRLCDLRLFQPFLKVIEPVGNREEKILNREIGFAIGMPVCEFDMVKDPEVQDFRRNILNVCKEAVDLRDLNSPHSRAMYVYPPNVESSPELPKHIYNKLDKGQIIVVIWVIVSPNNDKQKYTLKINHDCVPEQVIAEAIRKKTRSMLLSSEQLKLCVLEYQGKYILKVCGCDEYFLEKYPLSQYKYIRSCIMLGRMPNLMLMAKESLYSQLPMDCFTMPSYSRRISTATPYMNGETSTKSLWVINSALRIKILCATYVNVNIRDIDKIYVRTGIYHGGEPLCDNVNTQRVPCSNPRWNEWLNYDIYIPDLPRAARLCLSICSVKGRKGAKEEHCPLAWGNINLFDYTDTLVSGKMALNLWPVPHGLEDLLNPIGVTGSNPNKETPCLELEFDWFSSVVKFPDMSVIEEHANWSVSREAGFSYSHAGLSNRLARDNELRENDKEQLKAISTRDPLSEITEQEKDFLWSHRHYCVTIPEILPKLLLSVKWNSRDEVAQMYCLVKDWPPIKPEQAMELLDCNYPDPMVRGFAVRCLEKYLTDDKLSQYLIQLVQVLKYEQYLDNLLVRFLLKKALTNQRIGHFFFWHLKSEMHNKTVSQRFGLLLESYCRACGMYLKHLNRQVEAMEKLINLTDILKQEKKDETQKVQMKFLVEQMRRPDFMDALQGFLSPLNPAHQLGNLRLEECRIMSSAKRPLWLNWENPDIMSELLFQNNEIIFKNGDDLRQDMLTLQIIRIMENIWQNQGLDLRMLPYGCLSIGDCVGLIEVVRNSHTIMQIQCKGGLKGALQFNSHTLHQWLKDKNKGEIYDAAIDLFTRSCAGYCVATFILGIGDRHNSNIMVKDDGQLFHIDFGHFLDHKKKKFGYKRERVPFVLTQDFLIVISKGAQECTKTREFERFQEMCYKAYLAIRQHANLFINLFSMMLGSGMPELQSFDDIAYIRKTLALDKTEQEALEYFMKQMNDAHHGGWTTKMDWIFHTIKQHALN
UniProt P27986, whole entry partner: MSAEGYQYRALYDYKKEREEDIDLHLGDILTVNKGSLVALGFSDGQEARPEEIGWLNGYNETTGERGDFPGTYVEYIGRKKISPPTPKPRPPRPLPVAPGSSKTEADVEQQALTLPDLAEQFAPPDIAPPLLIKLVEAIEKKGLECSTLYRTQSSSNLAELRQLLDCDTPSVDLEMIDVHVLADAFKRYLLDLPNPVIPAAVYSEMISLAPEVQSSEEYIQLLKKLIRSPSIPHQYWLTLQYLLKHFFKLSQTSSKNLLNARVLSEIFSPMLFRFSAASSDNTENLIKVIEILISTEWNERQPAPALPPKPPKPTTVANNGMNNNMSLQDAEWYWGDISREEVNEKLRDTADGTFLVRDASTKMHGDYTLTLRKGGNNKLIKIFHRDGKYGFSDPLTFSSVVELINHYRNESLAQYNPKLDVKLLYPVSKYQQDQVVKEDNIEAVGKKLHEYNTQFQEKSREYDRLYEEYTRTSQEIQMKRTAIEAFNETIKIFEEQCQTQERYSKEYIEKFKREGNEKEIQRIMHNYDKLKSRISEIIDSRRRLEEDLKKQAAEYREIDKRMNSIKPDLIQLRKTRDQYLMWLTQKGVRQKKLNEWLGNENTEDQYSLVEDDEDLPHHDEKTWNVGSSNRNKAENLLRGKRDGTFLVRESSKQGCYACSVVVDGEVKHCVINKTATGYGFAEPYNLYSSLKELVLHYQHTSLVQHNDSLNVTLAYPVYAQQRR

Assay [1] concerns the target p110α Type Ia human PI3K (Homo sapiens, UniProt P42336). In words: In vitro PI3K enzyme assay (AlphaScreen), Test (a). The following applies: read-out: IC50 versus p110α Type Ia human PI3K. It counts as biochemical. For orientation: Bead proximity is the source of the signal in Alpha formats.
Assay [2] relates to phosphorylation of Serine 473 in Akt in MDA-MB-468 human breast adenocarcinoma cell line. Description: In vitro phospho-Ser473 Akt assay, Test (c). It counts as cell-based. The following applies: read-out: IC50 (inhibition of Serine 473 phosphorylation in Akt), MDA-MB-468 cells.

Broadly, the IC50 is the concentration that gives 50% inhibition.

As to `COc1cccc2c1nc(C(F)F)n2-c1nc(N2CCOCC2)cc(N2CCN(C(=O)CN)CC2)n1`, the IC50 came out at 20 nM in assay [1] and 60 nM in assay [2].
